By UniProt entry, the sequences of proteins in these tests, tags left out. Residues count along the entry.
UniProt Q07820, 171-327: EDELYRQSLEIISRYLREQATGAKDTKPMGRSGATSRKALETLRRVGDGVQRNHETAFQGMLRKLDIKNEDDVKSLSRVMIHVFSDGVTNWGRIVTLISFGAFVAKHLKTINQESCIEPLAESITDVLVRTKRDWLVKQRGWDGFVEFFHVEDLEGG

According to patent US11224601B1, “Compounds that inhibits MCL-1 protein” (priority 2017, dated 2022):

Target: recombinant human Mcl-1 (Mcl-1/Bim interaction) (Homo sapiens (Human), UniProt Q07820)
Test: biochemical
Assay type: binding
Settings: cell free Mcl-1:Bim TR-FRET

Row | Compound | IC50 (read-out: Mcl-1 HTRF IC50) [nM] | IC50 (Mcl-1 HTRF IC50 (μM)) [nM]
1 | CO[C@]1(CN2C[C@H]3CCCCN3CC2=O)/C=C/C[C@H](C)[C@@H](C)S(=O)(=O)NC(=O)c2ccc3c(c2)N(C[C@@H]2CC[C@H]21)C[C@@]1(CCCc2cc(Cl)ccc21)CO3 [Example 154, (1S,3′R,6′R,7′R,8′E,11′S,12′R)-6-chloro-7′-methoxy-11′,12′-dimethyl-7′-(((9aR)-3-oxooctahydro-2H-pyrido[1,2-a]pyrazin-2-yl)methyl)-3,4-dihydro-2H,15′H-spiro[naphthalene-1,22′-[20]oxa[13]thia[1,14]diazatetracyclo[14.7.2.0˜3,6˜.0˜19,24˜]pentacosa[8,16,18,24]tetraen]-15′-one 13′,13′-dioxide] | 0.197 | –
2 | (1S,3′R,6′R,7′R,8′E,11′S,12′R)-6-chloro-7′-((9aS)-hexahydropyrazino[2,1-c][1,4]oxazin-8(1H)-ylmethyl)-7′-methoxy-12′-(2-methoxyethyl)-11′-methyl-3,4-dihydro-2H,15′H-spiro[naphthalene-1,22′-[20]oxa[13]thia[1,14]diazatetracyclo[14.7.2.0˜3,6˜.0˜19,24˜]pentacosa[8,16,18,24]tetraen]-15′-one 13,13′-dioxide [Example 11] | 0.098 | –
3 | C[C@@H]1[C@@H](C)C/C=C/[C@@](O)(CN2CCOCC2)[C@@H]2CC[C@H]2CN2C[C@@]3(CCCc4cc(Cl)ccc43)COc3ccc(cc32)C(=O)NS1(=O)=O (single isomer, unassigned) [Example 194] | – | 0.148

Where two headings read alike, the source gives them in different places.
